Test results: PubChem BioAssay AID893 (National Center for Advancing Translational Sciences (NCATS), 2007)
The entries are a selection whose mix differs from that of the whole data set. Results filed as inconclusive are left out. Activity calls are given as the source filed them. Calls come from the whole dose curve; as a rule, active = well fitted inhibition curve with a large enough effect; inconclusive = small, poorly fitted or top-dose-only effect; inactive = no such curve, though single readings can be large or run the other way.

Biological target: 3-hydroxyacyl-CoA dehydrogenase type-2 (Homo sapiens) (UniProt Q99714)
Experiment: qHTS Assay for Inhibitors of HSD17B4, hydroxysteroid (17-beta) dehydrogenase 4;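 note: the protocol describes HADH2 (HSD17B10) and not the HSD17B4 of the title; nearly all actives have a fitted effect of over 70% in size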
Conditions: recombinant HSD17B10, NADH fluorescence kinetic; at 57.1 µM (top of the series) unless noted
% is set by controls: 0 for no effect and ±100 for the full control effect.

SMILES	activity change, negative = inhibition
N#CC1(Nc2ccccc2)CCN(CCc2ccccc2)CC1	inactive: 7.31%
NCC(O)CN.Oc1c(Cl)c(Cl)c(Cl)c(Cl)c1Cl	inactive: 1.34% [at 11.4 µM]
CCOP(=O)(Cl)Cl	inactive: -4.29%
C=C(C)CNCC(=C)C.Oc1c(Cl)c(Cl)c(Cl)c(Cl)c1Cl	inactive: -2.27% [at 11.4 µM]
NC1CCCCC1.NP(=O)(O)N(CCCl)CCCl	inactive: 5% [at 11.4 µM]
O=C(OC1CN2CCC1CC2)C1c2ccccc2Oc2ccccc21 (centres undefined)	inactive: 10.1%
COc1ccc(NC2CCN(CCc3ccccc3)CC2)c(OC)c1	inactive: -0.675%
Fc1ccccc1NC1CCN(Cc2ccccc2)CC1	inactive: -1.7%
O=C(O)C1(Nc2ccccc2)CCN(Cc2ccccc2)CC1	inactive: 12.8% [at 11.4 µM]
CCOc1ncccc1C(=O)NCC1(N2CCOCC2)CCCCC1	inactive: -5.54%
CCC(CO)(C(=O)OC1CN2CCC1CC2)c1ccccc1 (centres undefined)	inactive: 4.91%
N/C(=N\O)c1c(N)no[n+]1[O-]	inactive: 11.3%
C[C@@H](O)CC(C)(C)N.Oc1c(Cl)c(Cl)c(Cl)c(Cl)c1Cl	inactive: 1.23% [at 11.4 µM]
ClCCOP(OCCCl)OCCCl	inactive: -4.22%
